This passage reports IC50 results from ChEMBL document CHEMBL1134096, “Discovery and characterization of the potent, selective and orally bioavailable MMP inhibitor ABT-770” (Bioorg Med Chem Lett, 2001).

SMILES strings stand for the structures.

For the test, the target named is T1, Interstitial collagenase (Homo sapiens, UniProt P03956).
T1 sequence (P03956 whole entry): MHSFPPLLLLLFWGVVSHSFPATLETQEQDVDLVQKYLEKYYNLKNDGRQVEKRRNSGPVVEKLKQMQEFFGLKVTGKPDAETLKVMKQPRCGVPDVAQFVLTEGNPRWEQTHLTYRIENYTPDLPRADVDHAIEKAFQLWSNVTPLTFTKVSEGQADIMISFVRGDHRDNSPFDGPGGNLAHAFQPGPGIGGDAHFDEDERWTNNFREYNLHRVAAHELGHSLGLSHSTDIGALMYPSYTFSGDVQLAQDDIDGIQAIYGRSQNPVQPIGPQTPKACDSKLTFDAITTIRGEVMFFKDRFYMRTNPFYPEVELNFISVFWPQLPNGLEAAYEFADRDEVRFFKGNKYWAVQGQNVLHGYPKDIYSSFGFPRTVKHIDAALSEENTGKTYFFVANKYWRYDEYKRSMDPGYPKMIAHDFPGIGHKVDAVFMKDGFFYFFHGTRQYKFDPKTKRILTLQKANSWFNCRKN
Briefly: In vitro inhibition of human Matrix metalloprotease-1.

By IC50 is commonly meant the point on the concentration scale where inhibition reaches its midpoint. A low value points to higher potency.

As to `COc1ccc(-c2ccc(OCC(CN3C(=O)N(C)C(C)(C)C3=O)N(O)C=O)cc2)cc1` (stereo unspecified), the midpoint of inhibition, the IC50, lay at 440 nM.
